Assay results from US20250025465A1, “WT-IDH1 INHIBITION USING A COVALENT AND BRAIN-PENETRANT SMALL MOLECULAR INHIBITOR FOR FERROPTOSIS INDUCTION IN HIGH-GRADE GLIOMA” (Northwestern University, priority 2021, published 2025).

Test system: HGG glioma cells
Assay: SYTOX green staining of glioma cells (plasma membrane rupture, ferroptosis)
Type: cell-based
Conditions: co-treatment with 13i, FIG. 11A-C

alpha-ketoglutarate [reference compound]
rescue of 13i treatment effect by co-treatment: rescued 13i treatment effect
